This is a selection; strong and weak results do not stand in their true shares. Inconclusive results are not listed. Calls of active or inactive are those of the source. The call rests on the fitted dose curve; in most records, active means well fitted inhibition curve with a large enough effect; inconclusive means small, poorly fitted or top-dose-only effect; inactive means no such curve, though single readings can be large or run the other way.

This test in a line: Primary qHTS for Identification of Small Molecule Inhibitors of Huntingtin Promoter Activity. Further: nearly all actives have a fitted effect of over 50% in size. The conditions noted are these: HEK293 HTT promoter firefly luciferase reporter (activity 0% = vehicle and -100% = no light), 24 h; at 57.5 µM (top of the series) unless noted. The source says: Assay Provider: Russell L. Margolis M.D.
Department Neurology, Johns Hopkins University School of Medicine, Baltimore, MD
Huntington's Disease (HD) is a neurodegenerative disorder caused by a CAG repeat expansion in exon 1 of huntingtin (HTT). While there are currently no disease-modifying treatments for HD, recent efforts have focused on development of nucleotide-based therapeutics to lower HTT expression. As an alternative to siRNA or oligonucleotide methods, we hypothesized that suppression of HTT expression might be accomplished by small molecules that either (1) directly decrease HTT expression by suppressing HTT promoter activity or (2) indirectly decrease HTT expression by increasing the promoter activity of HTT-AS, the gene antisense to HTT that appears to inhibit expression of HTT.
We developed and employed a high throughput screen for modifiers of HTT and HTT-AS promoter activity using luminescent reporter HEK293 cells; of the 52,041 compounds tested, we identified 898 replicable hits. We used a rigorous stepwise approach to assess compound toxicity and the capacity of the compounds to specifically lower huntingtin protein in 5 different cell lines, including HEK293 cells, HD lymphoblastoid cells, mouse primary neurons, HD iPSCs differentiated into cortical-like neurons, and HD hESCs. We found no compounds which were able to lower huntingtin without lowering cell viability in all assays, though the potential efficacy of a few compounds at non-toxic doses could not be excluded.
SEQUENCE No. (1, 2, 3, etc.); […] (e.g., Cells, Incubation, Reagent, etc.); VALUE and DESCRIPTION.
1; Reagent; 4 uL; 2,500 Hek293 luciferase reporter cells per wells
3; Compound; 23 nL; Control inhibitor / compound library
5; Reagent; 2.5 uL; Firefly Luc reagent; Dual-Glo Luciferase Reporter Assay System (Promega)
6; Time; 10 min; room temperature incubation
7; Detection; Luminescence; FLuc
NOTES (numbers refer to sequence above)
1; High-throughput screening, measuring luminescence from a Hek293 luciferase reporter, was performed in 1,536 well white-walled tissue-culture treated plates. 2,500 cells were plated in 4 µL of Opti-MEM per well using a Multidrop Combi Reagent Dispenser (ThermoFisher).
2; Assay plates were cultured for 24 hours.
3; Control inhibitor (PTC124; final concentration of 50 uM) and compound library (at final concentrations of 460 nM - 57.5 uM) were added to the assay plate using the Kalypsis Pintool Robotic System equipped with 1536 pinheads.
4; Cells were then incubated for 24 hours at 37 degrees C prior to luminescence measurements.
5; In all cases, luminescence was measured using the Dual-Glo Luciferase Reporter Assay System (Promega) following the manufacturer's instructions.
6; Room temperature incubation.
7; Luminescence signal was obtained using the PerkinElmer ViewLux plate reader. Results were normalized to vehicle control (0% activity) and zero RLU (-100% activity).
Regarding `O=[N+]([O-])c1cccc([N+](=O)[O-])c1`, the activity change, negative = inhibition is inactive: 17.6% [at 116 µM].

Consider `CCOP(=O)(CC)Oc1ccc([N+](=O)[O-])cc1` (stereo not given), for which the activity change, negative = inhibition was inactive: -8.22%. The figure for `Cc1cccc([N+](=O)[O-])c1[N+](=O)[O-]` is inactive: -2.37% [at 116 µM]; for `C/C1=C2N=C(/C=C3N=C(/C(C)=C4\[N-][C@@](C)([C@@H]5N=C1[C@](C)(CCC(=O)NC[C@@H](C)OP(=O)([O-])O[C@H]1[C@@H](O)[C@@H](n6cnc7cc(C)c(C)cc76)O[C@@H]1CO)[C@H]5CC(N)=O)[C@@](C)(CC(N)=O)[C@@H]4CCC(N)=O)[C@@](C)(CC(N)=O)[C@@H]\3CCC(N)=O)C(C)(C)[C@@H]/2CCC(N)=O.[C-]#N.[Co+3]` it is inactive: -28.8%. The value for `OCCSCCO` was inactive: 4.17%.

The values above are taken from PubChem BioAssay AID1508623 (National Center for Advancing Translational Sciences (NCATS), 2021).
